What was measured:
[1] = system: tyrosine kinase pathway proteins (EGFR, p-EGFR, Akt, p-Akt, Erk1/2, p-Erk1/2) in HepG2 cells; test: Western blot of tyrosine kinase pathway proteins in HepG2; assay type: cell-based; settings: HepG2, 48 h, lower and higher concentrations compared to control
[2] = system: angiogenesis pathway proteins (VEGFR, Akt, p-Akt, Erk1/2, p-Erk1/2) in HUVEC cells; test: Antiangiogenic effect, Western blot of angiogenesis pathway proteins in HUVEC; assay type: cell-based, Human; settings: 48 h
[3] = higher concentrations compared to controls

CNC(=O)c1cc(Oc2ccc(NC(=O)Nc3ccc(Cl)c(C(F)(F)F)c3)cc2)ccn1 [Sorafenib, 4-(4-(3-(4-Chloro-3-(trifluoromethyl)phenyl)ureido)phenoxy)-N-methylpicolinamide, reference compound]
decreased: Total Erk1/2 expression [1] | p-Akt expression ([2]; compared to control, Ru3S and sorafenib high and low, Ru4S high concentration) | Total VEGFR expression ([2]; higher concentrations compared to control) | Total Erk1/2 expression [2, 3] | p-Erk1/2 expression [2, 3]

From PMC10983010 (Journal of Medicinal Chemistry, 2024)
